Measured values reported in patent EP0421367B1, “Anticoagulant peptides” (MERRELL PHARMACEUTICALS INC., priority 1989, dated 1991).
pIC50: −log10 of the molar value.

molecular target: Bovine thrombin (Bos taurus, UniProt P00735); assay: biochemical

Row | SMILES | pIC50
1 | CC[C@H](C)[C@H](NC(=O)[C@@H]1CCCN1C(=O)[C@H](Cc1ccc(O)cc1)NC(=O)CCC(=O)O)C(=O)N1CCC[C@H]1C(=O)N[C@@H](CCC(=O)O)C(=O)N[C@@H](CCC(=O)O)C(=O)N[C@@H](C)C(=O)N[C@@H](CC1CCCCC1)C(=O)N[C@H](CCC(=O)O)C(=O)O [Peptide 1] | 3.70 to 4.60
2 | C[C@H](NC(=O)[C@H](CCC(=O)O)NC(=O)[C@H](CCC(=O)O)NC(=O)[C@@H]1Cc2ccccc2CN1C(=O)[C@@H]1CCCN1C(=O)[C@H](CCC(=O)O)NC(=O)[C@H](Cc1ccc(O)cc1)NC(=O)CCC(=O)O)C(=O)N[C@@H](CC1CCCCC1)C(=O)N[C@H](CCC(=O)O)C(=O)O [Peptide 3] | > 4.60
3 | CC[C@H](C)[C@H](NC(=O)[C@@H]1CCCN1C(=O)[C@H](CCC(=O)O)NC(=O)[C@H](Cc1ccc(O)cc1)NC(=O)CCC(=O)O)C(=O)N1CCC[C@H]1C(=O)N[C@@H](CCC(=O)O)C(=O)N[C@@H](CCC(=O)O)C(=O)N[C@@H](C)C(=O)N[C@@H](CC(N)=O)C(=O)O [Peptide 5] | > 4.60
4 | CC[C@H](C)[C@H](NC(=O)[C@@H]1CCCN1C(=O)[C@H](Cc1ccc(O)cc1)NC(=O)/C=C\C(=O)O)C(=O)N1CCC[C@H]1C(=O)N[C@@H](CCC(=O)O)C(=O)N[C@@H](CCC(=O)O)C(=O)N[C@@H](C)C(=O)N[C@@H](CC1CCCCC1)C(=O)N[C@H](CCC(=O)O)C(=O)O [Peptide 6] | 3.70 to 4.60
5 | CC[C@H](C)[C@H](NC(=O)[C@H](CCC(=O)O)NC(=O)[C@H](Cc1ccc(O)cc1)NC(=O)CCC(=O)O)C(=O)N1CCC[C@H]1C(=O)N[C@@H](CCC(=O)O)C(=O)N[C@@H](CCC(=O)O)C(=O)N[C@@H](C)C(=O)N[C@@H](CC1CCCCC1)C(=O)N[C@H](CCC(=O)O)C(=O)O [Peptide 8] | 3.70 to 4.60
6 | C[C@H](NC(=O)[C@H](CCC(=O)O)NC(=O)[C@H](CCC(=O)O)NC(=O)[C@@H]1CCCN1C(=O)[C@@H]1CCCN1C(=O)[C@H](CCC(=O)O)NC(=O)[C@H](Cc1ccc(O)cc1)NC(=O)CCC(=O)O)C(=O)N[C@@H](CC1CCCCC1)C(=O)N[C@H](CCC(=O)O)C(=O)O [Peptide 9] | 3.70 to 4.60
7 | CC[C@H](C)[C@H](NC(=O)[C@@H]1CCCN1C(=O)[C@H](CCC(=O)O)NC(=O)[C@H](Cc1ccc(O)cc1)NC(=O)CCC(=O)O)C(=O)N[C@@H](CCC(=O)O)C(=O)N[C@@H](CCC(=O)O)C(=O)N[C@@H](C)C(=O)N[C@@H](CC1CCCCC1)C(=O)N[C@H](CCC(=O)O)C(=O)O [Peptide 10] | > 4.60
8 | CC[C@H](C)[C@H](NC(=O)[C@@H]1CCCN1C(=O)[C@H](CCC(=O)O)NC(=O)[C@H](Cc1ccc(O)cc1)NC(=O)CCC(=O)O)C(=O)N1CCC[C@H]1C(=O)N[C@@H](CCC(=O)O)C(=O)N[C@@H](CCC(=O)O)C(=O)N[C@@H](C)C(=O)N[C@H](CCC(=O)O)C(=O)O [Peptide 11] | > 4.60
9 | CC[C@H](C)[C@H](NC(=O)[C@@H]1CCCN1C(=O)[C@H](CCC(=O)O)NC(=O)[C@H](Cc1ccc(O)cc1)NC(=O)CCC(=O)O)C(=O)N1CCC[C@H]1C(=O)N[C@@H](CCC(=O)O)C(=O)N[C@@H](CCC(=O)O)C(=O)N[C@@H](C)C(=O)N[C@@H](CCC(N)=O)C(=O)O [Peptide 12] | > 4.60
10 | CC[C@H](C)[C@H](NC(=O)[C@@H]1CCCN1C(=O)[C@H](CCC(=O)O)NC(=O)[C@H](Cc1ccccc1)NC(=O)CCC(=O)O)C(=O)N1CCC[C@H]1C(=O)N[C@@H](CCC(=O)O)C(=O)N[C@@H](CCC(=O)O)C(=O)N[C@@H](C)C(=O)N[C@@H](CCC(N)=O)C(N)=O [Peptide 13] | 3.70 to 4.60
11 | CC[C@H](C)[C@H](NC(=O)[C@@H]1CCCN1C(=O)[C@H](CCC(=O)O)NC(=O)CCC(=O)O)C(=O)N1CCC[C@H]1C(=O)N[C@@H](CCC(=O)O)C(=O)N[C@@H](CCC(=O)O)C(=O)N[C@@H](C)C(=O)N[C@@H](CC1CCCCC1)C(=O)N[C@H](CCC(=O)O)C(=O)O [Peptide 14] | 3.70 to 4.60
